Sequences of proteins named here, by UniProt entry; tags and fusion partners are left off.
UniProt P30542, whole entry: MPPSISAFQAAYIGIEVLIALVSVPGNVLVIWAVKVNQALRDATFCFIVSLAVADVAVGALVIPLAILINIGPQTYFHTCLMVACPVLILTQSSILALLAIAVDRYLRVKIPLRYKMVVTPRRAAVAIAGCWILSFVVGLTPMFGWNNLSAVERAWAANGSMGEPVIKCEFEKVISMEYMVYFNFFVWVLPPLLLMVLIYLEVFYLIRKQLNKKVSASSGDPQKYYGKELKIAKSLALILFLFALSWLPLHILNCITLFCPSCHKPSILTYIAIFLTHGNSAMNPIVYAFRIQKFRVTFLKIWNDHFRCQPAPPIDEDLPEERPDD

According to patent US20060211045A1, “Fluorescently tagged ligands” (priority 2003, published 2006):

Tests used:
[1] = molecular target: human A1-AR (Homo sapiens, UniProt P30542); experiment: c-fos-pGL3 luciferase reporter assay in CHO-A1fos cells; format: cell-based; conditions: agonist 5 h, mean±s.e.mean
[2] = molecular target: human A1-receptor (Homo sapiens, UniProt P30542); experiment: Live cell confocal imaging of ligand binding to CHO-A1 cells; format: cell-based; conditions: 100 nM BY630-ABEA

## CCNC(=O)[C@H]1O[C@@H](n2cnc3c(NCCCCNC(=O)CCCCCNC(=O)COc4ccc(C=CC5=[N+]6C(=Cc7ccc(-c8cccs8)n7[B-]6(F)F)C=C5)cc4)ncnc32)[C@H](O)[C@@H]1O
[1]
  pEC50, stimulation of luciferase expression: 6.76±0.18
[2]; CHO-A1 cells, n=3
  Time after which binding of ligand to the membrane was detectable (confocal imaging): 5 min
[2]; DPCPX 1 μM, 30 min
  Membrane binding after preincubation with DPCPX (confocal imaging): substantially reduced
